# Active and inactive are the calls of the source. No cut-off for these calls is given here.
# Target: T1, Aminopeptidase N (Sus scrofa) (UniProt P15145)
# T1 sequence (whole entry): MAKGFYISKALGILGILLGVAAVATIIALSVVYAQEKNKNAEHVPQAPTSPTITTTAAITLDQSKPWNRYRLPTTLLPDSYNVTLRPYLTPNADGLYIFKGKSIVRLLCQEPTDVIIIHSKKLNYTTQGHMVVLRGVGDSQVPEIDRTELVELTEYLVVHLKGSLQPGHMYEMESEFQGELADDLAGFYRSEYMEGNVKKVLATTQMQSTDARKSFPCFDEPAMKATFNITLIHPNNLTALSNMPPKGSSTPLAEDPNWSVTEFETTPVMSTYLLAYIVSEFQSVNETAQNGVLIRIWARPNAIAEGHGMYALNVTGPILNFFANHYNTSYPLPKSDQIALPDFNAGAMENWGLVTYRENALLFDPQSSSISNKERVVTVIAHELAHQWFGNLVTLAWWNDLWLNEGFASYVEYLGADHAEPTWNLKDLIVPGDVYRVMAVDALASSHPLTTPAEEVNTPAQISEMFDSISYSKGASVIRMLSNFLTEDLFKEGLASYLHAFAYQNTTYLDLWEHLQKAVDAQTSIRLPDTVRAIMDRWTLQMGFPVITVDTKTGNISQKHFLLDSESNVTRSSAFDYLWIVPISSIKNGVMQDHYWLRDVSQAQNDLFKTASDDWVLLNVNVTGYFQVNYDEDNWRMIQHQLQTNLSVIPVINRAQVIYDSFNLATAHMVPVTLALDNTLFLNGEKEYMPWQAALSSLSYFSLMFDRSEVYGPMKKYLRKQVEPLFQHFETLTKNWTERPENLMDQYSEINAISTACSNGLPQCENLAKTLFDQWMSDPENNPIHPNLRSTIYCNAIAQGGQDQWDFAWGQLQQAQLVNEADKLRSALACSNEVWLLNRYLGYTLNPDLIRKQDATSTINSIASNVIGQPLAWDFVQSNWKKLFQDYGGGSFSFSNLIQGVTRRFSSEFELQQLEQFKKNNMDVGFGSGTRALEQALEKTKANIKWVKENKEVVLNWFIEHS
# Assay: Competitive inhibition of porcine kidney APN using L-leucine-p-nitroanilide as substrate after 30 mins by Dixon plot analysis
smiles,measurement,value
NC1CCc2c(Br)ccc(-c3ccccc3)c2CC1=O (racemic),inhibition,Active
